Laboratory results as given in patent US10807974B2, “Methylamine derivatives as lysysl oxidase inhibitors for the treatment of cancer” (The Institute of Cancer Research: Royal Cancer Hospital, priority 2016, dated 2020).
Counter-ions that a name gives are not always drawn.

Amino acid sequences for entries named in this document (tags omitted). Residues count along the entry.
UniProt Q9Y4K0, 26-774, species assumed: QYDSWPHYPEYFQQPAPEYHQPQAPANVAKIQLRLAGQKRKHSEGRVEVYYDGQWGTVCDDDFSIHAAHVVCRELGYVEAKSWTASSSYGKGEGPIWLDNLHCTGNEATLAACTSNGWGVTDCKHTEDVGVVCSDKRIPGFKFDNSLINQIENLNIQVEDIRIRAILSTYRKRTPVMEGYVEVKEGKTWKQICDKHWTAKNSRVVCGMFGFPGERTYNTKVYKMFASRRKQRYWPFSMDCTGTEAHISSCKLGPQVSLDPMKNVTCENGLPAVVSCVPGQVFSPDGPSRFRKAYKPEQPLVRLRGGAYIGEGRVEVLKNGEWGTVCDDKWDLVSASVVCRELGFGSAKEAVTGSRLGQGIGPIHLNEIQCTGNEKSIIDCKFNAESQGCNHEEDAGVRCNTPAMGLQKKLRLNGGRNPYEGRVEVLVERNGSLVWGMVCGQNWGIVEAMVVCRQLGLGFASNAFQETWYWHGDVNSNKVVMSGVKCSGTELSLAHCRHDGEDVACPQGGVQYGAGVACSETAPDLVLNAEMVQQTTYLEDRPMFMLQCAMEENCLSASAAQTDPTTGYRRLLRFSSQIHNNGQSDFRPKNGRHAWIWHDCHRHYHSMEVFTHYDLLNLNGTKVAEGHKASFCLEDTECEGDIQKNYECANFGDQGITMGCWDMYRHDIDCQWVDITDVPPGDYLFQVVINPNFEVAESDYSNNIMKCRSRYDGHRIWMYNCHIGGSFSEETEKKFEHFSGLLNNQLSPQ
UniProt P21397, whole entry: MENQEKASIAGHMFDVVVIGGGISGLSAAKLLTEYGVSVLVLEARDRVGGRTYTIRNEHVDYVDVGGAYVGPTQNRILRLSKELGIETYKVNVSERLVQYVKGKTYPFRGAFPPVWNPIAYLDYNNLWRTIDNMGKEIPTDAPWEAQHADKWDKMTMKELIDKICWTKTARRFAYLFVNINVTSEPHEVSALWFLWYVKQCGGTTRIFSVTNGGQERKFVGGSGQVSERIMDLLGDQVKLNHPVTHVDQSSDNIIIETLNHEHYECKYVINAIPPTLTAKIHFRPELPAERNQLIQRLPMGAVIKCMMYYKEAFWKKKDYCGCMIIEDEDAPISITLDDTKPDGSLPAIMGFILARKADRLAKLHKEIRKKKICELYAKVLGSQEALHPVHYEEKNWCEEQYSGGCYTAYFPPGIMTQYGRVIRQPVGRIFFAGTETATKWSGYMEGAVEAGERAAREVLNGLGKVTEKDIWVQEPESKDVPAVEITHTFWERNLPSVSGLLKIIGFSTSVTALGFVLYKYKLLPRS
UniProt P27338, whole entry: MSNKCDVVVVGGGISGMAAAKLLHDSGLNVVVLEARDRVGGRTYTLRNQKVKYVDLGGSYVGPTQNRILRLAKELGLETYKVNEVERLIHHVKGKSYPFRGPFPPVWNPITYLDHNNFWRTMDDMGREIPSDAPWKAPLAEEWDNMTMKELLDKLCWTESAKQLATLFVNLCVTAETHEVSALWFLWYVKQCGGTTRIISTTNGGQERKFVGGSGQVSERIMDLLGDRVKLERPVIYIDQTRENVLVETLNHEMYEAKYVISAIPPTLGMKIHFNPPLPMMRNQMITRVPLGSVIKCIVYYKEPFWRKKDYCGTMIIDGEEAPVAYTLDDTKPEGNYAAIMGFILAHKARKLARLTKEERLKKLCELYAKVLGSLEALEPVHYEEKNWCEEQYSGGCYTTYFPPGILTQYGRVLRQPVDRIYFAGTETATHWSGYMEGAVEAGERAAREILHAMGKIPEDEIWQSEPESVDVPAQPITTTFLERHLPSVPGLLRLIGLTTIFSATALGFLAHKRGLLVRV

Target: LOXL2 (Homo sapiens (Human), UniProt Q9Y4K0)
Assay: LOXL2 enzyme activity assay (ROS-Glo; pre-incubation 20 min Method (a), 60 min Method (b), 20 h Method (c))
Type: biochemical
Conditions: read-out: LOXL2 IC50 b) 1 hr

Structure (SMILES)	IC50
COc1cc(-c2cn(C)cn2)cc(S(=O)(=O)c2cnc(CN)s2)c1	140 nM
COc1cc(-c2cnn(C3CC3)c2)cc(S(=O)(=O)c2cnc(CN)s2)c1	74 nM
CCn1cc(-c2cc(OC)cc(S(=O)(=O)c3cnc(CN)s3)c2)cn1	94 nM
CCc1cc(-c2cnn(C)c2)cc(S(=O)(=O)c2csc(CN)n2)c1	320 nM
CS(=O)(=O)c1cc(-c2ccc(C(F)(F)F)cc2)cc(S(=O)(=O)c2cnc(CN)s2)c1	170 nM
Cc1ccc(-c2cc(S(=O)(=O)c3cnc(CN)s3)ccc2S(C)(=O)=O)cc1	260 nM
Cn1cc(-c2cc(C(F)(F)F)cc(S(=O)(=O)c3cnc(CN)s3)c2)cn1 [Example 143]	310 nM
Cn1cc(-c2cc(C(=O)O)cc(S(=O)(=O)c3cnc(CN)s3)c2)cn1	240 nM
Cn1cc(-c2cc(F)cc(S(=O)(=O)c3cnc(CN)s3)c2)cn1 [Example 131, (5-(3-Fluoro-5-(1-methyl-1H-pyrazol-4-yl)phenyl)sulfonyl)thiazol-2-yl)methanamine Trihydrochloride]	85 nM
COc1cc(-c2cnn(C)c2)cc(S(=O)(=O)c2cnc(CN)s2)c1	82 nM
NCc1ncc(S(=O)(=O)c2cc(C(=O)O)cc(-c3ccccc3)c2)s1	240 nM
CCc1cc(-c2ccc[n+]([O-])c2)cc(S(=O)(=O)c2cnc(CN)s2)c1	150 nM
CCc1cc(-c2ccsc2)cc(S(=O)(=O)c2cnc(CN)s2)c1	290 nM
CC(C)(C)c1cc(-c2ccccc2)cc(S(=O)(=O)c2cnc(CN)s2)c1	1260 nM
CCc1cc(-c2c(C)noc2C)cc(S(=O)(=O)c2cnc(CN)s2)c1	280 nM

Target: MAO-A (Homo sapiens (Human), UniProt P21397)
Assay: Monoamine oxidase A (MAO-A) selectivity assay
Type: biochemical
Conditions: not given

Structure (SMILES)	IC50	inhibition of MAO-A
Cc1ccc(-c2cccc(S(=O)(=O)c3cnc(CN)s3)c2)cc1	27000 nM	
NCc1ncc(S(=O)(=O)c2cc3ccccc3c3ccccc23)s1	46000 nM	
CS(=O)(=O)c1cc(-c2ccccc2)cc(S(=O)(=O)c2ccc(CN)s2)c1		neither inhibits

Target: MAO-B (Homo sapiens (Human), UniProt P27338)
Assay: Monoamine oxidase B (MAO-B) selectivity assay
Conditions: not given

Structure (SMILES)	inhibition of MAO-B
CS(=O)(=O)c1cc(-c2ccccc2)cc(S(=O)(=O)c2ccc(CN)s2)c1	neither inhibits

Same assay, conditions: read-out: MAO B IC50

Structure (SMILES)	IC50
Cc1ccc(-c2cccc(S(=O)(=O)c3cnc(CN)s3)c2)cc1	17000 nM
CS(=O)(=O)c1cc(-c2cccnc2)cc(S(=O)(=O)c2ccc(CN)s2)c1	> 100000 nM

Test system: EGF-stimulated AKT phosphorylation in MDA-MB-231 cells
Assay: AKT activation assay (pS473AKT/total AKT ELISA)
Conditions: 20 μM compound

Structure (SMILES)	pAKT/AKT % inhibited vs control in MDA-MB231 cells
CS(=O)(=O)c1cc(-c2ccccc2)cc(S(=O)(=O)c2ccc(CN)s2)c1 [drawing 384]	39%
